Assay results: patent US8399026B2, “Peptides isolated from spider venom, and uses thereof” (priority 2009, dated 2013)

By UniProt entry, the sequences of proteins in these tests, tags left out. Where a name states a change or a piece, a line headed by the entry shows the natural chain unless it says otherwise.
UniProt Q62968, whole entry: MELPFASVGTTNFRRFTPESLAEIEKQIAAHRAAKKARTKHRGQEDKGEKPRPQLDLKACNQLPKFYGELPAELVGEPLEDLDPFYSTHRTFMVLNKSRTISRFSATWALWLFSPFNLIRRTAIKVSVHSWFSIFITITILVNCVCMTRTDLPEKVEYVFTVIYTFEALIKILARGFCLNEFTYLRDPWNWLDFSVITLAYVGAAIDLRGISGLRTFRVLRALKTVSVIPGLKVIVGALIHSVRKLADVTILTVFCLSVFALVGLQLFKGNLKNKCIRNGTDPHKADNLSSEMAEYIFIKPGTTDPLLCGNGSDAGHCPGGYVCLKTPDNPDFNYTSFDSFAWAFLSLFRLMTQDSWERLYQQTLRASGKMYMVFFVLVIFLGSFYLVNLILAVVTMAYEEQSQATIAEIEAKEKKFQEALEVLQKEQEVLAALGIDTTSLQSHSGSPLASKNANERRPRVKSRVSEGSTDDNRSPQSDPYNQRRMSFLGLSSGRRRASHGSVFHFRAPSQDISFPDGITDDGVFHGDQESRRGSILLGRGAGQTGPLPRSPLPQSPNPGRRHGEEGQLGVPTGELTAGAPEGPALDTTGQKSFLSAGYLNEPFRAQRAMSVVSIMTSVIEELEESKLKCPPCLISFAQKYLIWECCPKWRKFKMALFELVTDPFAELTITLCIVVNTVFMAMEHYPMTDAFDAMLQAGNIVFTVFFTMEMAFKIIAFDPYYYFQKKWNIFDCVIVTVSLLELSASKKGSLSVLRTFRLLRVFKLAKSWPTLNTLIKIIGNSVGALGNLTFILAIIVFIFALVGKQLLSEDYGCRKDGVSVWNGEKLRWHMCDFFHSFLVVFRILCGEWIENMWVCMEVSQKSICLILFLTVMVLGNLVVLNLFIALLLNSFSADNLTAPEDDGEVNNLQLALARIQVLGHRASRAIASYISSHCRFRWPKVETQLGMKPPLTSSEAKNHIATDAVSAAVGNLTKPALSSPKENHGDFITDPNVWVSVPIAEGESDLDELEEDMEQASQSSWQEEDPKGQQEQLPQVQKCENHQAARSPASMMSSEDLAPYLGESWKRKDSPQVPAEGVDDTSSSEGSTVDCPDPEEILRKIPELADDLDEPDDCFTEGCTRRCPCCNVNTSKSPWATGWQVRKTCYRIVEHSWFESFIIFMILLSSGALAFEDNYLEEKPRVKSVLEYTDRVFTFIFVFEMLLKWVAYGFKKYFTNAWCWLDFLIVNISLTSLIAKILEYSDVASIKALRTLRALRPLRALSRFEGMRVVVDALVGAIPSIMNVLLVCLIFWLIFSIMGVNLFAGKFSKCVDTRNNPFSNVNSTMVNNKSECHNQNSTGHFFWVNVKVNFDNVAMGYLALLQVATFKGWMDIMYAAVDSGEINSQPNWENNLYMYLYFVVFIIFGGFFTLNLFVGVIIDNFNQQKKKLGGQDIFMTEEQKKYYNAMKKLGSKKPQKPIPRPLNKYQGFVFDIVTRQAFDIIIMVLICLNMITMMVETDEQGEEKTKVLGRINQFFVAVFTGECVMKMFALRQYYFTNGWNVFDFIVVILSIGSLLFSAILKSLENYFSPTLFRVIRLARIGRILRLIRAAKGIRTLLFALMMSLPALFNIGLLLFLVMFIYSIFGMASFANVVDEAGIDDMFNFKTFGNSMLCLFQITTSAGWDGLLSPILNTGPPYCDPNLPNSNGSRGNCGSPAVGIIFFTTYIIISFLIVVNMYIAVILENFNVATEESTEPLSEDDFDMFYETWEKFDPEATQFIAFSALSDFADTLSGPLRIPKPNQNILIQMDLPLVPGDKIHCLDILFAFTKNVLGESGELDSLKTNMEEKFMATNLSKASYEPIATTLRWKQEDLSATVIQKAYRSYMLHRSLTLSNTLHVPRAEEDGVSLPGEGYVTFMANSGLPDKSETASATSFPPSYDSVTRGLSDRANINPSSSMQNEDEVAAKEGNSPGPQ
UniProt P08104, whole entry: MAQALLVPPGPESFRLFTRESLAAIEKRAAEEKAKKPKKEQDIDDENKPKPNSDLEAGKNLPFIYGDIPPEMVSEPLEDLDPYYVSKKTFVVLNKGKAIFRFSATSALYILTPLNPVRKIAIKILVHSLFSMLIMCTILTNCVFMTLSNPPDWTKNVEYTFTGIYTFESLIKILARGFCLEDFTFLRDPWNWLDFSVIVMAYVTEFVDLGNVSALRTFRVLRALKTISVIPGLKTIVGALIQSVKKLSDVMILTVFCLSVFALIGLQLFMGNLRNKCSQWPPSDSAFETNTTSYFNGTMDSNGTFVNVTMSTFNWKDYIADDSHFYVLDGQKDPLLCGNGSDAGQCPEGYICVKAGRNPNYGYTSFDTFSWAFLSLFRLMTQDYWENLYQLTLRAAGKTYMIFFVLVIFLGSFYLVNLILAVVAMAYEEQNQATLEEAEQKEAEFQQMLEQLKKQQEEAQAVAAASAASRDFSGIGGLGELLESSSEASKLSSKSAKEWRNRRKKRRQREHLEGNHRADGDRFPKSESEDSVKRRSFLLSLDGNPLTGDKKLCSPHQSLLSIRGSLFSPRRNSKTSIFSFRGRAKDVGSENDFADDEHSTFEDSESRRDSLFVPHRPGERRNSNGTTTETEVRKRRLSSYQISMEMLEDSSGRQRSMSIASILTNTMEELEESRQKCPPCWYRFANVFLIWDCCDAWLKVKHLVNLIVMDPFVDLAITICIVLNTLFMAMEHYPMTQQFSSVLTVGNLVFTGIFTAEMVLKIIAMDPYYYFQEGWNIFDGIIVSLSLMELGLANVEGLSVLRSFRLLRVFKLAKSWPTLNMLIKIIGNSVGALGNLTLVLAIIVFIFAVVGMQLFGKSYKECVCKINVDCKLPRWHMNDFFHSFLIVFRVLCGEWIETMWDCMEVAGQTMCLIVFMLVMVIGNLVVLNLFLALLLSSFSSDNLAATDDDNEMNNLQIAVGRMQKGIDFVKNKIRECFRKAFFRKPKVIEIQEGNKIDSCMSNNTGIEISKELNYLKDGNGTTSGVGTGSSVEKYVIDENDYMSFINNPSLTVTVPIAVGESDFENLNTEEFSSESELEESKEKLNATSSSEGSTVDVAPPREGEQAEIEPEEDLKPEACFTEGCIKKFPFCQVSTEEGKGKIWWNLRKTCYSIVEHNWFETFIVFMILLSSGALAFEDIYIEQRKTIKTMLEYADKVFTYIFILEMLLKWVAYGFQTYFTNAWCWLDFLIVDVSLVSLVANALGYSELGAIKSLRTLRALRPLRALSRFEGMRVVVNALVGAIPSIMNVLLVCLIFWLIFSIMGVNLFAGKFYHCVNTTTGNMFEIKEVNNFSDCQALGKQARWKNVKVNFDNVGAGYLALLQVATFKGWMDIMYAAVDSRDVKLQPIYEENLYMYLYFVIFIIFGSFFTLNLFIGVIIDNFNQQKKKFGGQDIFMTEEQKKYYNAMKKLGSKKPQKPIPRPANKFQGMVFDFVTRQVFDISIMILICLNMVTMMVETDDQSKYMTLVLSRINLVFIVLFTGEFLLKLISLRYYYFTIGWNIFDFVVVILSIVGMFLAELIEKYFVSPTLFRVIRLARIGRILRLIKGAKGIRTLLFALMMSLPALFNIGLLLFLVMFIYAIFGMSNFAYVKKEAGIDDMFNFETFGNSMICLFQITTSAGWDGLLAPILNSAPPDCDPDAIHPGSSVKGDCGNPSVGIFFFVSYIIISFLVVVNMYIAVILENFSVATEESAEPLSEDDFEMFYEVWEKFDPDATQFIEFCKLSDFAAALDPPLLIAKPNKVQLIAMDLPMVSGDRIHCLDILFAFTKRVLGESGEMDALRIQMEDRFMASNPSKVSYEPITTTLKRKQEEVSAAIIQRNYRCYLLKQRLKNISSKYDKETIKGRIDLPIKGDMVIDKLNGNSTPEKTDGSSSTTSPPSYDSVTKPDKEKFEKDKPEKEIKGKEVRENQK
UniProt Q12809: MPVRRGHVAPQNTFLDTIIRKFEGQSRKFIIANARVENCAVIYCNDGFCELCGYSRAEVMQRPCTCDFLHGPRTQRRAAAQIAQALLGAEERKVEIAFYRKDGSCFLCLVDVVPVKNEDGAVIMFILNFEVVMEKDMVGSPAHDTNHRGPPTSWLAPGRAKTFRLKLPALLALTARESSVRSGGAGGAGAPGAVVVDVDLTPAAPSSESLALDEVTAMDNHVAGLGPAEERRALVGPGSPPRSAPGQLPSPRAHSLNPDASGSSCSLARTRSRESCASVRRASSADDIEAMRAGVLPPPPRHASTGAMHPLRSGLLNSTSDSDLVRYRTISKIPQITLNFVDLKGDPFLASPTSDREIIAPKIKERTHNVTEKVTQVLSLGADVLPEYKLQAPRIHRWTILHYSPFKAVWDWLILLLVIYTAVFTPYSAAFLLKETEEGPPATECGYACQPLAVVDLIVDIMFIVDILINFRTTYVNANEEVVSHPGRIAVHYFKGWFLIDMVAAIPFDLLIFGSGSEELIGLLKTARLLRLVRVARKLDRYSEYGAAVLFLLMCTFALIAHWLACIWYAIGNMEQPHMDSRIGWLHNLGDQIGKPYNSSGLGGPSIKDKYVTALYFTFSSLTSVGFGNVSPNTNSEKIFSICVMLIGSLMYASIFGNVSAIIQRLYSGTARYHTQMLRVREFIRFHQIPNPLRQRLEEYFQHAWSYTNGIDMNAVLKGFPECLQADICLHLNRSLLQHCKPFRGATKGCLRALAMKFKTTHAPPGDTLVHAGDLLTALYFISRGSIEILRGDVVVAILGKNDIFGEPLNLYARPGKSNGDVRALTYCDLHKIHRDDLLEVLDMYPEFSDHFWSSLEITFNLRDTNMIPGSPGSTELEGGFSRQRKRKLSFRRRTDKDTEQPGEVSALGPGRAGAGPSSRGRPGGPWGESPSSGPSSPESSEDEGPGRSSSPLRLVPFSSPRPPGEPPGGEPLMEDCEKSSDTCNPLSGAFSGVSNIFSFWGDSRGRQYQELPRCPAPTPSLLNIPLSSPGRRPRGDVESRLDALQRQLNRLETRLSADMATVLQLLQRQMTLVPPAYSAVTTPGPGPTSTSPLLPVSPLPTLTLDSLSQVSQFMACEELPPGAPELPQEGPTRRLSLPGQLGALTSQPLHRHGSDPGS

How the values were obtained:
rNaV1.8 channels = target: T1, rNaV1.8 channels (Rattus norvegicus, UniProt Q62968); experiment: Blocking of NaV1.8 channel currents, patch clamp, voltage ramp, ND7-23 cells; type: cell-based; conditions: text of Example 3; read-out: apparent IC50, NaV1.8 channels
T1 construct: expressed in transfected cells; host or cells: ND7-23

rNaV1.3 channels = target: T2, rNaV1.3 channels (Rattus norvegicus, UniProt P08104); experiment: cell-based
T2 construct: expressed in transfected cells; host or cells: HEK-293

hKV11.1 (hERG) channels = hKV11.1 (hERG) channels (Homo sapiens, UniProt Q12809)
[1] = test system: mouse embryonic stem cells derived cardiomyocytes (mES-CM)
rat DRG neurons = type: cell-based

## CC(C)C[C@@H]1NC(=O)[C@@H](NC(=O)[C@@H](N)CC(=O)O)CSSC[C@@H]2NC(=O)[C@@H]3CSSC[C@@H](C(=O)N[C@@H](CCCCN)C(=O)N[C@@H](Cc4ccc(O)cc4)C(=O)N[C@@H](CCCCN)C(=O)N[C@@H](CC(C)C)C(=O)N[C@@H](Cc4c[nH]c5ccccc45)C(=O)O)NC(=O)[C@H](Cc4c[nH]c5ccccc45)NC(=O)[C@H](CCCCN)NC(=O)[C@H](CC(=O)O)NC(=O)[C@H](CCCNC(=N)N)NC(=O)[C@H](CCCNC(=N)N)NC(=O)[C@H](CC(N)=O)NC(=O)[C@H](CSSC[C@H](NC(=O)CNC(=O)[C@H](CCCCN)NC(=O)[C@H](Cc4ccccc4)NC(=O)[C@H](Cc4c[nH]c5ccccc45)NC(=O)CNC1=O)C(=O)N[C@@H](CC(=O)O)C(=O)N1CCC[C@H]1C(=O)N[C@@H](CC(=O)O)C(=O)N[C@@H](CC(N)=O)C(=O)N[C@@H](CC(=O)O)C(=O)N[C@@H](CCCCN)C(=O)N3)NC(=O)[C@H](CCCCN)NC(=O)[C@H](Cc1ccc(O)cc1)NC(=O)CNC(=O)[C@H](CCC(=O)O)NC2=O [Peptide F]
rNaV1.8 channels
  IC50: 170 nM
rNaV1.3 channels
  potency range in inhibiting the target channels: sub-nanomolar range
rNaV1.3 channels; HEK cells, each data point average of 3-5 experiments
  dose response curves of native and synthetic peptides for inhibiting rNaV1.3 channels: overlap completely
rNaV1.3 channels; text of Example 3, read-out: apparent IC50, NaV1.3 channels
  IC50: 130 nM
hKV11.1 (hERG) channels; each peptide at 10 × its IC50 for Nav1.3, mean ± S.D
  % inhibition (mean ± S.D) of hERG at concentration × 10 IC50 for Nav1.3: 6 ± 7%
hKV11.1 (hERG) channels; highest dose examined, ten times the IC50 for NaV1.3
  effect on hERG channel currents: no effect
[1]; A 3.8 μM, B 9 μM, C 5 μM, D 0.75 μM, E 0.83 μM, F 1 μM
  effect on the frequency or the amplitude of action potentials in cardiomyocytes: affected action potential frequency
[1]; B 9 μM, F 1 μM
  inhibition of action potentials in cardiomyocytes: about 20%
[1]; concentration in brackets in the cell: A 3.75, B 9.00, C 5.00, D 0.75, E 0.83, F 1.00 μM, mean ± S.D
  % inhibition (mean ± S.D) of AP frequency in mES-CM & [concentration (μM)]: 25 ± 23 [1.00] %
Rat DRG neurons; concentration in brackets in the cell: A 5.00, B 0.70, C 5.00, D 0.75, E 0.83, F 1.00 μM, mean ± S.D
  % inhibition (mean ± S.D) of AP in rDRG & [concentration (μM)]: 46 ± 24 [1.00] %
Rat DRG neurons; dose higher than the IC50 for NaV1.3: A 5 μM, B 0.7 μM, C 5 μM, D 0.75 μM, E 0.83 μM, F 1 μM
  inhibition of DRG action potentials: inhibited DRG action potentials
